Test: LogD shake flask (octanol/PBS)
Format: physicochemical
Conditions: measured log D
Method: LogD measurements were carried out using the shake flask method. Compound was diluted from 10 mM DMSO stock solution into an eppendorf containing equal amounts of octanol and phosphate buffered saline (PBS) to give a final concentration of 100 μM. The tubes were shaken for 12 hours, centrifuged at 10000 rpm for 10 minutes and samples taken from the octanol and PBS layers. The samples from both layers were analysed in triplicate by LC-MS/MS (Agilent Technologies G6410 series, triple quadrupole with MM-ESI ion source) using optimised multiple reaction monitoring (MRM) scans and a standard column gradient on an Acquity UPLC BEH C8 1.7 μm column, running acetonitrile and water with 0.05% Acetic Acid as the mobile phase. The ratios of areas of the peaks were used to calculate the LogD in accordance with the equation: LogD = Log10(Area-TL/Area BL)

SMILES: CN1CCC(Nc2ccc3ncc(-c4cnn(-c5ccc(F)cc5)c4)n3n2)CC1
- m Log D: 2.8

From paper PMC3809513, “Imidazopyridazines as potent inhibitors of Plasmodium falciparum calcium-dependent protein kinase 1 (PfCDPK1): Preparation and evaluation of pyrazole linked analogues^” (Bioorganic & Medicinal Chemistry Letters, 2013)
